Reference: ChEMBL document CHEMBL4028901, “Novel Antitubercular 6-Dialkylaminopyrimidine Carboxamides from Phenotypic Whole-Cell High Throughput Screening of a SoftFocus Library: Structure-Activity Relationship and Target Identification Studies” (J Med Chem, 2017)

Protein sequences, listed by entry. Tags and fused reporters are not part of them. Lines headed by an entry give the natural chain unless they say otherwise; changes in a name come on top.
UniProt Q12809: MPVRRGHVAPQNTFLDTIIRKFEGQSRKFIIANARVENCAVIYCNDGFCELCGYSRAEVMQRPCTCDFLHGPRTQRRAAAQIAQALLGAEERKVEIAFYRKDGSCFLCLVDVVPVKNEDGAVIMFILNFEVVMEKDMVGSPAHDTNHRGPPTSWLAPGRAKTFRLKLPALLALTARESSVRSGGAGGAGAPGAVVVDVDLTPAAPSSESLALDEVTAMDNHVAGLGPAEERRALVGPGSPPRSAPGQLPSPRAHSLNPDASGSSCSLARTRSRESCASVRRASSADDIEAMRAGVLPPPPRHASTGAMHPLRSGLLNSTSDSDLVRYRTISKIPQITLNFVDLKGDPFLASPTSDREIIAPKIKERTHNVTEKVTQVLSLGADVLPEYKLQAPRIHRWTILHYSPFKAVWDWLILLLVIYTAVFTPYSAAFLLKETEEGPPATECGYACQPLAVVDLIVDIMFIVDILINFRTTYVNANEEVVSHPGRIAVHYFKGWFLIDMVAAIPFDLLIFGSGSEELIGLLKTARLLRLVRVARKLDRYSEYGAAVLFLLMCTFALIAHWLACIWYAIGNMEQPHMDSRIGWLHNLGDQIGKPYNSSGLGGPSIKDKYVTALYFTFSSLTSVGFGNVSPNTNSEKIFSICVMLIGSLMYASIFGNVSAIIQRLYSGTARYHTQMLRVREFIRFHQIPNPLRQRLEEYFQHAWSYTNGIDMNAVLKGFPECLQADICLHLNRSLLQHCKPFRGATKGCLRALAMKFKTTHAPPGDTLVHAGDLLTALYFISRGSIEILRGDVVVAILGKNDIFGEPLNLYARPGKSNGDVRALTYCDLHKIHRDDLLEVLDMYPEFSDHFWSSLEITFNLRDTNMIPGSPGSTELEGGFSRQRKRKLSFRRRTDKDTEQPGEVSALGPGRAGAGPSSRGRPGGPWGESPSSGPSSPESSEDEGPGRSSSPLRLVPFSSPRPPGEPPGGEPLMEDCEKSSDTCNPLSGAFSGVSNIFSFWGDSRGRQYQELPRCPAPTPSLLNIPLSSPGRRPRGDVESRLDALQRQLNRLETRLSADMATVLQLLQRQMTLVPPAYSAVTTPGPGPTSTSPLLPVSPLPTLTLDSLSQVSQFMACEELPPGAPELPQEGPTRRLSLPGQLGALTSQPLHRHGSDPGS

Target: Voltage-gated inwardly rectifying potassium channel KCNH2 (Homo sapiens, UniProt Q12809)

| SMILES | IC50 [µM] |
| --- | --- |
| CN1CCN(c2ccc(NC(=O)c3cc(N(C)Cc4ccc(C(F)(F)F)cc4)ncn3)cc2)CC1 | 0.9 |
| CN(Cc1ccc(C(F)(F)F)nc1)c1cc(C(=O)Nc2ccccc2)ncn1 | 5.6 |
| CN(Cc1ccc(C(F)(F)F)nc1)c1cc(C(=O)Nc2nncs2)ncn1 | 14 |
| CC(C)Oc1ccc(NC(=O)c2cc(N(C)Cc3ccc(F)cc3)ncn2)cc1 | 4.1 |
| CN(Cc1ccc(C(F)(F)F)cc1)c1cc(C(=O)Nc2ccccc2)ncn1 | 3.3 |
